Earlier results in patent US9150585B2, “Analogs of camptothecin” (FL Therapeutics, LLC, priority 2012, dated 2015).

Conditions: Prijovich et al. 2003, cited from earlier work

Q: Which blood half-life (active lactone ring form in blood) does the source give for 9-Aminocamptothecin glucuronide here?
A: The blood half-life was “about 50 minutes”.

Q: What about the “lactone ring form at equilibrium in blood” value (blood) of the same substance?
A: The value was “about 20%”.
